Measurements: BindingDB's records for patent US10413550 (The Institute of Cancer Research, 2019)

Protein sequences, listed by entry. Tags and fused reporters are not part of them.
UniProt A9CPF9, whole entry: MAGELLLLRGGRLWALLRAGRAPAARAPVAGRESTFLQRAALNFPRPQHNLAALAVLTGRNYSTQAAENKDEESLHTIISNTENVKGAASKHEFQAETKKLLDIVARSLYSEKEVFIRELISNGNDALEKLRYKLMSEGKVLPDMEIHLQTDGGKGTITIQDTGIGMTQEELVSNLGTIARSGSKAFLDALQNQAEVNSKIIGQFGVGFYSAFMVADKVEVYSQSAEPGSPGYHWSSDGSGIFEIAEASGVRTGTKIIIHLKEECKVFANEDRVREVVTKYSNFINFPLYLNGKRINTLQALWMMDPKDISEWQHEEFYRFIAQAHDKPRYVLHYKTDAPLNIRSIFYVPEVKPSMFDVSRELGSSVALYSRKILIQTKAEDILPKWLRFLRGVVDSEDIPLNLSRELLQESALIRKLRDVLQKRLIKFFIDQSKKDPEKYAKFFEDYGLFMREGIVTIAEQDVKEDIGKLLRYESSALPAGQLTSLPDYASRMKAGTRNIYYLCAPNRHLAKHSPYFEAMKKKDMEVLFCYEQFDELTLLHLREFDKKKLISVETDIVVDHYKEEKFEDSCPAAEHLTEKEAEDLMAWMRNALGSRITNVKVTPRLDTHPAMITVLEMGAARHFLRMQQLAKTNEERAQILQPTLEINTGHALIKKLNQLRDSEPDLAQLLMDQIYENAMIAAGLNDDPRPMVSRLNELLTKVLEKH
UniProt P08238, whole entry: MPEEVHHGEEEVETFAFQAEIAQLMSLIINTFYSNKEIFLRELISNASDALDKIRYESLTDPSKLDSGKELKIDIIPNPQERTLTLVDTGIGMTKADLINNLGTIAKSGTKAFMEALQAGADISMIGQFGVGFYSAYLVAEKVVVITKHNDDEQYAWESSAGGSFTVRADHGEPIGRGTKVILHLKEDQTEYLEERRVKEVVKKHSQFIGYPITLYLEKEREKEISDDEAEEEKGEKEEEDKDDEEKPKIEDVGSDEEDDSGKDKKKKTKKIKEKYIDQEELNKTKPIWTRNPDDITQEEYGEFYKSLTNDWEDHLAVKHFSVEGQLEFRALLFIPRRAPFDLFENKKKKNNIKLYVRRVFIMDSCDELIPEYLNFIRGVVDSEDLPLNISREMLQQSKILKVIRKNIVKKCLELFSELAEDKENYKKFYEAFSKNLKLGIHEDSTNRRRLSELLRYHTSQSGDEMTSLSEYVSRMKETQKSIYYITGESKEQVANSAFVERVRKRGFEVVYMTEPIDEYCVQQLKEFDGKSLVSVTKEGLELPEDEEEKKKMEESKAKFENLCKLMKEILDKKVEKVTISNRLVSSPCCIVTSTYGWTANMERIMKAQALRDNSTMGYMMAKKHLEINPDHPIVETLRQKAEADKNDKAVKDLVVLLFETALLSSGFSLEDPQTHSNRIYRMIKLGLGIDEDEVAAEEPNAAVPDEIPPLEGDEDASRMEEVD
UniProt P14625, whole entry: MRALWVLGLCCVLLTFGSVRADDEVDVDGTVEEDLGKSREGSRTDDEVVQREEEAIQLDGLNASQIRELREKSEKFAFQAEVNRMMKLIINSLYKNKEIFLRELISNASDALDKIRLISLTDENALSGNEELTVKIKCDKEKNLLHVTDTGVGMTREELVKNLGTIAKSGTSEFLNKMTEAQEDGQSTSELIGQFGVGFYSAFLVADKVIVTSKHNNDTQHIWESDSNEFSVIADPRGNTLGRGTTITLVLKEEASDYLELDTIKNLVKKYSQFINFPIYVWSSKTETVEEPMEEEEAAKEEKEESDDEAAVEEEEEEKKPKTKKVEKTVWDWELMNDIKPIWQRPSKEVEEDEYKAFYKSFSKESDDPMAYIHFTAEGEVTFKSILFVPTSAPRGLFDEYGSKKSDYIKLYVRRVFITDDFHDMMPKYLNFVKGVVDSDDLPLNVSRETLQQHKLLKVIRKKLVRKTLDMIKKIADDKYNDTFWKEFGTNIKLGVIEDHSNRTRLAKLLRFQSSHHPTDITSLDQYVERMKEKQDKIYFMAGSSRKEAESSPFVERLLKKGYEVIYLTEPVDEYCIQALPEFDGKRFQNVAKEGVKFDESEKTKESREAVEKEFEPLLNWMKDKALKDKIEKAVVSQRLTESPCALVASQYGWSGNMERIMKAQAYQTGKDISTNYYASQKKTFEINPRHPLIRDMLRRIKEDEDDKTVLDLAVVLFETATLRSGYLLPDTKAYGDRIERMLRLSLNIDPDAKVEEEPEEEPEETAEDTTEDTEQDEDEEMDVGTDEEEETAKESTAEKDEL

Biological target: Endoplasmin/Heat shock protein 75/Heat shock protein HSP 90-alpha/Heat shock protein HSP 90-beta (Homo sapiens, UniProt A9CPF9+P07900+P08238+P14625)
Assay: Malachite Green ATPase Assay
Experimental: Method 1. Dilute test compounds to 500 μM in AR water (DMSO concentration will be 2.5%). Transfer 2.5 μl of these compounds directly from the daughter plate to the assay plate, giving a final assay concentration of 100 μM. […] Column 1 in the assay plate contains no compound, as a negative control. […] 2. […] 3. […] 4. […] 5. […] 6. First thing in the morning prepare the Malachite Green Reagent. […] 7. […] 8. […] 9. […] 11.

IC50: > 10 µM
Structure (SMILES): COc1ccc(-c2c(C)noc2-c2cc(-c3cccnc3)c(O)cc2O)cc1 [US10413550, Example 12]
